Source: PubChem (National Center for Advancing Translational Sciences (NCATS))
Hits are enriched below; roughly 3.6% of the tested compounds scored in any of these assays.
PI5P4K alpha inh – inhibitors of human PI5P4K alpha; 1.2% of 330,000 active; max response, %; P48426; PI5P4Kalpha enzyme, ADP-Glo luminescence, 60 min; stronger effect = lower value; active = max response of -50% or lower; inconclusive = between -30% and -50%; inactive = -30% or higher; note: value at the top dose of about 77 µM; % is set by controls: 0 for no effect and ±100 for the full control effect
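Reactions run in 0.038 M HEPES pH 7.4, 0.28 mM EGTA, 0.1% CHAPS and 5% DMSO, with PI5P4Kalpha, substrate, compound and 5 microM ATP final, one hour at room temperature. Readout is ADP-Glo luminescence.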
Rango complex inh – prevents formation of the Rango-importin beta complex; Q14974; Rango CFP/YFP FRET sensor + importin beta, 45 min; Potency, µM (top dose mostly 92.2 µM), for inactives: at the highest dose inhibition of complex formation; 0.031% of 340,000 active; AID 540263; calls by dose curve;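 note: potency is the fitted concentration of half-maximal effect; 0% = DMSO wells and 100% = buffer wells lacking importin beta; nearly all actives have a fitted effect of over 15% in size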
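FRET biosensor (snurportin 1 IBB flanked by EYFP and cerulean), 50 nM, with compound 5 min, then 0.125 microM importin beta in PBS, 1 mM DTT, 0.02% Tween-20, 0.1% BSA. CFP/YFP ratio read after 45 min at room temperature; pre-read flags interference.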
GCN5L2 inh – GCN5L2 (KAT2A) acetyltransferase inhibition | Q92830 | GCN5L2 HAT assay, ThioGlo1 CoA-SH fluorescence | Potency, µM (series often up to 58.9 µM), inactives show at the highest dose activity change, negative = inhibition, usual class: inhibitors | 0.21% of 390,000 active | AID 504327; note: potency is the fitted concentration of half-maximal effect; % is set by controls: 0 for no effect and ±100 for the full control effect
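Fluorescence readout, Ex340nm/Em540nm: ThioGlo1 (50uM final) reacts with free CoA thiol released as 20nM GCN5L2 acetylates H3(1-25) peptide (75uM) using acetyl-CoA (70uM). Compound and enzyme sat 15 min beforehand; 20 min room-temperature reaction.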
Rango release inh – prevents RanGTP from dissociating the Rango-importin beta complex; Biochemical FRET Rango-importin beta, RanGTP-induced dissociation; AID 540253; O95149+P62826; 0.071% of 340,000 active; Potency, µM (top dose mostly 46.1 µM), for the others: at the highest dose activity change, negative = inhibition; calls by dose curve; note: potency is the fitted concentration of half-maximal effect; % of control where 0% means no effect; nearly all actives have a fitted effect of over 45% in size
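Recombinant Rango FRET biosensor (EYFP–snurportin 1 IBB–cerulean CFP10) at 0.1 uM premixed with 0.25 uM importin beta in PBS, 1 mM DTT, 0.02% Tween-20, 0.1% BSA. Compound added 5 min; RanGTP-RCC1 (0.6 uM Ran, 2 mM GTP, 0.2 uM RCC1) then triggers release, read at 45 min.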
VDR inhibitor – inhibitors of human vitamin D receptor; Potency, µM, for the others: max response, negative = inhibition, most hits filed as inhibitors; VDR-SRC2-3 peptide fluorescence polarization, 2 h; 0.93% of 400,000 active; note: potency is the fitted concentration of half-maximal effect; % is set by controls: 0 for no effect and ±100 for the full control effect
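Measured by FP: displacement of SRC2-3 coactivator peptide from VDR by library compounds, following a two-hour ambient incubation.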
PLK1 PBD block – blocks phosphopeptide binding to human PLK1 polo-box domain. Plk1 PBD binding of FITC phosphopeptide, fluorescence polarization. Potency, µM, for the others: max response, negative = inhibition, usual class: inhibitors. 2.8% of 360,000 active. AID 720504; note: potency is the fitted concentration of half-maximal effect; series mostly up to about 57 µM; % is set by controls: 0 for no effect and ±100 for the full control effect; nearly all actives have a fitted effect of over 65% in size
Active calls of the source: *; ? = inconclusive; . = no result. Unless noted, calls come from the whole dose curve; as a rule, active = well fitted curve in the direction sought with a large enough effect; inconclusive = small, poorly fitted or top-dose-only effect, or another doubt; inactive = no such curve, though single readings can be large; an effect the other way counts as inactive or inconclusive.

1. CCOc1ccc(OCC)c(NC(=O)CSc2nnc(-c3cccnc3)o2)c1
2. CCOc1ccccc1NC(=O)CSc1nnc(-c2cccnc2)o1
3. CCOC(=O)c1c(NC(=O)CSc2nnc(-c3ccco3)o2)sc(C(C)=O)c1C
4. CCOC(=O)c1c(NC(=O)CSc2nnc(-c3cccnc3)o2)sc(C(C)=O)c1C
5. COc1ccc(NC(=O)CSc2nnc(-c3cccnc3)o2)c(OC)c1
6. CC(N)(COP(=O)(O)O)C(=O)O (stereo not drawn)
7. Cc1cc(-c2[nH]nc3c2C(c2cccc(O)c2)C(C#N)=C(N)O3)c(C)s1 (stereo not drawn)
8. CCCc1[nH]nc2c1C(c1ccsc1)C(C#N)=C(N)O2 (stereo not drawn)
assay / entry | 1 | 2 | 3 | 4 | 5 | 6 | 7 | 8
PI5P4K alpha inh | . | 2 | 2 | -23 | -4 | . | . | ?
Rango complex inh | -1% | 1% | -4% | -5% | 4% | . | 2% | 0%
GCN5L2 inh | -25% | 0% | . | -8% | -4% | 0% | -4% | -1%
Rango release inh | 5% | -2% | -11% | -15% | -6% | . | -12% | 6%
VDR inhibitor | 0% | -37% | 17% | ? | ? | -7% | -7% | -26%
PLK1 PBD block | -6% | 24µM* | 14% | 12µM* | 21µM* | . | -10% | ?

In another format: 4 of the compounds above.
2	CCOc1ccccc1NC(=O)CSc1nnc(-c2cccnc2)o1
- PI5P4K alpha inh: 2
- Rango complex inh: 1%
- GCN5L2 inh: 0%
- Rango release inh: -2%
- VDR inhibitor: -37%
- PLK1 PBD block: 24µM*

3	CCOC(=O)c1c(NC(=O)CSc2nnc(-c3ccco3)o2)sc(C(C)=O)c1C
- PI5P4K alpha inh: 2
- Rango complex inh: -4%
- GCN5L2 inh: .
- Rango release inh: -11%
- VDR inhibitor: 17%
- PLK1 PBD block: 14%

4	CCOC(=O)c1c(NC(=O)CSc2nnc(-c3cccnc3)o2)sc(C(C)=O)c1C
- PI5P4K alpha inh: -23
- Rango complex inh: -5%
- GCN5L2 inh: -8%
- Rango release inh: -15%
- VDR inhibitor: ?
- PLK1 PBD block: 12µM*

5	COc1ccc(NC(=O)CSc2nnc(-c3cccnc3)o2)c(OC)c1
- PI5P4K alpha inh: -4
- Rango complex inh: 4%
- GCN5L2 inh: -4%
- Rango release inh: -6%
- VDR inhibitor: ?
- PLK1 PBD block: 21µM*

The results go on:
9. COCc1[nH]nc2c1C(c1ccsc1)C(C#N)=C(N)O2 (stereo not drawn)
10. Cc1cc(-c2[nH]nc3c2C(c2ccsc2)C(C#N)=C(N)O3)c(C)s1 (stereo not drawn)
11. O=C1C2C3C=CC(CNS(=O)(=O)c4ccccc4[N+](=O)[O-])(O3)C2C(=O)N1c1ccccc1 (stereo not drawn)
12. O=C1NNC(c2ccccc2)=N/C1=C\c1ccco1
13. CCCCOc1nc2ccccc2nc1C(C#N)C(=O)NC1CCCCC1 (stereo not drawn)
14. CCOc1ccc2nc(N(Cc3cccnc3)C(=O)c3ccco3)sc2c1
15. O=C(CS(=O)c1ccc(C(F)(F)F)cc1[N+](=O)[O-])Oc1ccccc1 (stereo not drawn)
16. COc1ccc(-c2nnc(SCC(=O)NCc3ccccc3)nc2-c2ccc(OC)c(OC)c2)cc1OC
assay / entry | 9 | 10 | 11 | 12 | 13 | 14 | 15 | 16
PI5P4K alpha inh | ? | -52* | -14 | -53* | 7 | . | 7 | .
Rango complex inh | 2% | -1% | -5% | ? | ? | . | 8% | .
GCN5L2 inh | -3% | -8% | -7% | -16% | -4% | -3% | -16% | -2%
Rango release inh | -10% | 2% | 5% | -22% | ? | . | 3% | .
VDR inhibitor | -4% | -17% | -13% | -12% | -11% | 7% | 0% | -3%
PLK1 PBD block | 27µM* | -28% | 67µM* | ? | 27µM* | . | 27µM* | .

17. O=C(/C=C/c1ccc(Cl)c(Cl)c1)NC1=NCCS1
18. CC(C)c1ccc(/C=C/C(=O)NC2=NCCS2)cc1
19. COc1ccccc1-c1nc2c(c(SCc3cc(C)ccc3C)n1)Cc1c(CO)cnc(C)c1O2
20. Cc1nn(-c2ccccc2)c2nc(C3CC3)cc(C(=O)Nc3cccc(F)c3)c12
21. COc1ccc(CCNC(=O)CCCn2c(=O)c3ccccc3n(CC(=O)Nc3cccc(C)c3)c2=O)cc1OC
22. CCOc1ccc(-c2cc(C(=O)NCc3ccccc3Cl)c3ccccc3n2)cc1
23. N#CCSc1nc2sccc2c(=O)n1-c1ccccc1
24. CNC(=O)CSc1nc2sccc2c(=O)n1-c1ccccc1
assay / entry | 17 | 18 | 19 | 20 | 21 | 22 | 23 | 24
PI5P4K alpha inh | -1 | . | . | . | . | . | -70* | ?
Rango complex inh | -1% | . | . | . | . | . | -7% | 2%
GCN5L2 inh | -1% | -3% | -10% | -5% | -3% | -21% | -26% | -2%
Rango release inh | 11% | . | . | . | . | . | -1% | -4%
VDR inhibitor | -22% | . | 0% | 18% | -1% | 11% | -4% | -9%
PLK1 PBD block | 21µM* | . | . | . | . | . | -5% | -7%

25. CC(=O)Nc1nn(CC(C)C)c2nc3ccc(C)cc3cc12
26. CC(C)Cn1nc(NC(=O)C2CCCO2)c2cc3ccccc3nc21 (stereo not drawn)
27. O=C(O)CN1C(=O)/C(=C/c2ccc(N3CCCCC3)o2)SC1=S
28. CN1CCS/C1=C/C=C1\SC(=S)N(CC(=O)O)C1=O
29. CCCCN1C(=O)/C(=C/C=C2\N(C)c3ccccc3C2(C)C)SC1=S
30. CCCCN1C(=O)/C(=C/C=C2\SCCN2C)SC1=S
31. COc1ccc(OC)c(S(=O)(=O)N2CCC(c3ccncc3)CC2)c1
32. CCOc1ccccc1NC(=O)Cn1nnc2sc3c(c2c1=O)CCC(C(C)(C)C)C3 (stereo not drawn)
assay / entry | 25 | 26 | 27 | 28 | 29 | 30 | 31 | 32
PI5P4K alpha inh | -9 | 4 | ? | -2 | . | 4 | . | .
Rango complex inh | . | ? | ? | 58µM* | . | 52µM* | . | .
GCN5L2 inh | . | -12% | -19% | 0% | -7% | -18% | -2% | -18%
Rango release inh | . | ? | ? | ? | . | -6% | . | .
VDR inhibitor | . | -12% | ? | -16% | . | -5% | -3% | 5%
PLK1 PBD block | -3% | 30µM* | -6% | 120% | . | 49% | . | .

33. CN(Cc1ccccc1F)Cc1cc(=O)oc2cc(O)c(Cl)cc12
34. CCCCc1nc2cc(C(=O)N3CCCCC3C(=O)OC)ccc2o1 (stereo not drawn)
35. COc1cccc(Cn2c(=O)n(CCc3ccccc3)c(=O)c3c2c2cc(OC)ccc2n3C)c1
36. Cc1c(C(=O)N2CCOCC2)c(S(=O)(=O)Nc2ccc(C(C)C)cc2)c(C)n1C
37. Cc1c(C(=O)N2CCOCC2)c(S(=O)(=O)Nc2ccc(OC(F)(F)F)cc2)c(C)n1C
38. Cc1ccc(NS(=O)(=O)c2c(C(=O)N3CCCCCC3)c(C)n(C)c2C)cc1F
39. Cc1ccc(NS(=O)(=O)c2c(C(=O)N3CCCCCC3)c(C)n(C)c2C)cc1C
40. Cc1c(C(=O)N2CCCC2)c(S(=O)(=O)N2CCCCC2)c(C)n1C
assay / entry | 33 | 34 | 35 | 36 | 37 | 38 | 39 | 40
PI5P4K alpha inh | -63* | -21 | . | -16 | -1 | . | -5 | 4
Rango complex inh | ? | 0% | . | -2% | -1% | . | -2% | 1%
GCN5L2 inh | -8% | -4% | -4% | -1% | -2% | -6% | -14% | ?
Rango release inh | ? | -2% | . | -4% | ? | . | -8% | -1%
VDR inhibitor | 12% | ? | 5% | ? | 3% | 11% | -11% | -6%
PLK1 PBD block | -20% | 27µM* | . | 27µM* | -5% | . | 21µM* | -11%

41. Cc1c(C(=O)N2CCCCC2)c(S(=O)(=O)N2CCC(C)CC2)c(C)n1C
42. CN(C)C(=S)Nc1nc2ccccc2s1
43. CCCC(=O)Nc1nc2ccc(OCC)cc2s1
44. CCOc1ccc2nc(NC(=S)N(C)C)sc2c1
45. CCNC(=O)Nc1nc2ccccc2s1
46. Cc1ccc2nc(N3C(=O)C(O)=C(C(=O)c4ccc(C)o4)C3c3ccco3)sc2c1 (stereo not drawn)
47. CCc1ccc2nc(N3C(=O)C(O)=C(C(=O)c4ccco4)C3c3cccs3)sc2c1 (stereo not drawn)
assay / entry | 41 | 42 | 43 | 44 | 45 | 46 | 47
PI5P4K alpha inh | -5 | ? | -3 | -19 | 1 | ? | -59*
Rango complex inh | -1% | 0% | -2% | 1% | -1% | ? | ?
GCN5L2 inh | 1% | 2% | 0% | -10% | -5% | -16% | ?
Rango release inh | 12% | -9% | 14% | 0% | 0% | ? | ?
VDR inhibitor | ? | ? | 1% | -23% | 0% | ? | ?
PLK1 PBD block | 21µM* | 11µM* | -15% | 19µM* | 8% | ? | 17µM*
